1 compound from ChEMBL document CHEMBL4834397 (J Med Chem, 2021) can be followed below.

The target of experiment [1] is T1, Leukotriene A-4 hydrolase (Homo sapiens, UniProt P09960).
T1 sequence (P09960 whole entry): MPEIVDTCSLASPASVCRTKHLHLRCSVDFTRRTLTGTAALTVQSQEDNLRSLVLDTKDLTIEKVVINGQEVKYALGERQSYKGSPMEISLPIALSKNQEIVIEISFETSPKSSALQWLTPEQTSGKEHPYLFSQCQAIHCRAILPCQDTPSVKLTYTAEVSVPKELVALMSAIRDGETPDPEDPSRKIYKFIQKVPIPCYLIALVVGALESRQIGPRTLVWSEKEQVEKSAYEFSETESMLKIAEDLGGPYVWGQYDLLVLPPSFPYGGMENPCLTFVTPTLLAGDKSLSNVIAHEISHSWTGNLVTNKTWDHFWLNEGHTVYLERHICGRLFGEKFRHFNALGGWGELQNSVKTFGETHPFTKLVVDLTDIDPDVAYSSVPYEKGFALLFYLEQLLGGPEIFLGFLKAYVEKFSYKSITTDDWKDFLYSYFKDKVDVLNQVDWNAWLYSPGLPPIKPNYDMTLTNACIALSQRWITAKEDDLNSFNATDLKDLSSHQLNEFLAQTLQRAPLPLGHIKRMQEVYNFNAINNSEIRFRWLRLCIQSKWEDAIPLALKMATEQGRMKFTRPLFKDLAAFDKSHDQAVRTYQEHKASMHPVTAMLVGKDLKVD
Nature of the experiment: Inhibition of LTA4H in human PBMC assessed as reduction of calcium ionophore A23187-stimulated LTB4 generation preincubated for 4 hrs followed by ionophore stimulation and measured after 2 hrs by EIA assay. The class given is tissue-based.

The target of experiment [2] is T1, Leukotriene A-4 hydrolase. The experiment is described as follows: Inhibition of recombinant full length N-terminal His6-tagged LTA4H (unknown origin) expressed in Escherichia coli BL21 DE3 cells at enzyme concentration <1 nM using Arg-AMC as substrate preincubated for 15 mins followed by substrate addition and measured every 10 mins for 300 mins by fluorescence based assay.

In experiment [3] the target is T1, Leukotriene A-4 hydrolase. The experiment is described as follows: Inhibition of LTA4H in human whole blood assessed as reduction of calcium ionophore A23187-stimulated LTB4 generation preincubated for 4 hrs followed by ionophore stimulation and measured after 15 hrs by EIA assay. The class given is tissue-based.

`O=C(O)CCCN1CCC[C@H]1COc1ccc(Oc2ccc(Cl)cc2)cc1`: the IC50 in experiment [1] was 74 nM; in experiment [2], 54 nM; in experiment [3] it was 510 nM.
